Results reported in ChEMBL document CHEMBL3227972, “Correlation of carbonic anhydrase inhibitory activities of benzenesulfonamides with the data obtained by use of nitrogen-14 nuclear quadrupole resonance” (J Med Chem, 1979).

Organism: Homo sapiens
Assay: Inhibition of carbonic anhydrase (unknown origin) relative to sulfanilamide

- fold change (FC): 8.5
SMILES: Cc1ccc(S(N)(=O)=O)cc1
